Laboratory results from patent US20240010655A1, “DIHYDROIMIDAZO PYRIMIDO PYRIMIDINONE COMPOUND” (priority 2019, published 2024).

Chains of the proteins cited; added tags and fusions are not shown.
UniProt P30291, whole entry: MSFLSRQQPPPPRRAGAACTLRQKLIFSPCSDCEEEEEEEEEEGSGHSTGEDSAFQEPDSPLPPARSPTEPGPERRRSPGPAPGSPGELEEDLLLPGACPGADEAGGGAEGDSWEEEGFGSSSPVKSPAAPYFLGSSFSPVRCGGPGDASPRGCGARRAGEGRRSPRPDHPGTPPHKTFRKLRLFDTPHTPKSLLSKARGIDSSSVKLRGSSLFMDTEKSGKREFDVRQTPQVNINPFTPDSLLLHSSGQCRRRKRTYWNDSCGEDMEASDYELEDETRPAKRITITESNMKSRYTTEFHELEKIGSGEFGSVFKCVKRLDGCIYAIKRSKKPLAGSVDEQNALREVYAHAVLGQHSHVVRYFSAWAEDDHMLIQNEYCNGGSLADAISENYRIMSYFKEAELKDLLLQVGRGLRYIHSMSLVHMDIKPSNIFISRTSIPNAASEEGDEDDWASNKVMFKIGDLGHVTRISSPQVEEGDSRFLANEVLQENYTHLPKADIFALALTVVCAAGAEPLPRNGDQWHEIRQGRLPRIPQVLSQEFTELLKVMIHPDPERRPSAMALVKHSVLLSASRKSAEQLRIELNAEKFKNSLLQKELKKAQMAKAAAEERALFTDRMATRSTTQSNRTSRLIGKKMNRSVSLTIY

Experiments:
Wee1 (h) = Wee1 (h) (Homo sapiens, UniProt P30291); test: Wee1(h) kinase activity experiment ([γ-33P]-ATP, filtermat, scintillation counting); assay type: biochemical; conditions: read-out: IC50, inhibitory effect on Wee1 kinase activity; 10 μM ATP, 40 minutes at room temperature
Experimental: Determination of the Inhibitory Effect of Compounds on Wee1 Kinase Using Wee1(h) Kinase Activity Experiment
Wee1 (h) is incubated with 20 mM Tris/HCl pH 8.5, 0.2 mM EDTA, 500 μM […], 10 mM MgAcetate and 10 μM [γ-^33P]-ATP. Then 50 times the concentration of the testing compound in 100% DMSO was added until the final concentration was 10 μM, then mixed, and diluted to 10 concentrations in successive series according to the ratio of 1:3 and 1:10 respectively (the last concentration was DMSO negative control): 10 μM, 3 μM, 1 μM, 0.3 μM, 0.1 μM, 0.03 μM, 0.01 μM, 0.003 μM, 0.001 μM, 0 μM. The reaction is initiated by the addition of the Mg/ATP mix. After incubation for 40 minutes at room temperature, the reaction is stopped by the addition of phosphoric acid to a concentration of 0.5%. 10 μL of the reaction liquor is then spotted onto a P30 filtermat and washed four times in 0.425% phosphoric acid and once in methanol prior to drying and scintillation counting. Each compound sample is duplicated in duplicate. The negative control was the components except of Wee1 enzyme, and the positive control was the components of adding 30% phosphoric acid to terminate the reaction. Table 1 summarizes the inhibitory effects of compounds on Wee1 kinase activity (IC50).

NCI-H1299 cell = test: Inhibition of proliferation of NCI-H1299 cell, CCK-8 method; conditions: read-out: IC50, inhibitory effect on the proliferation of NCI-H1299 cell; CCK-8, 3 days
Experimental: Determination of the Inhibitory Effect of Compounds on the Proliferation of NCI-H1299 Cell Using CCK-8 Method
The cells were digested by trypsinase and centrifuged at 800 rpm for 5 minutes, the supernatant was discarded, and the residual was resuspended with fresh medium and counted. The cells were seeded into 96-well cell culture plate with a density of 1000 cells per well and incubated overnight in a 5% CO2 incubator at 37° C. The stock solutions of test compounds were serially diluted to 8 concentrations by DMSO at the ratios of 1:3 and 1:10, respectively. The final concentration of compound was: 10 μM, 3.3 μM, 1 μM, 0.33 μM, 0.1 μM, 0.033 μM, 0.01 μM and 0 μM. 5 μL diluent of each concentration was added to 120 μL of medium (25 times diluted) and mixed by shaking. The overnight cell plates were taken and the culture medium was removed, 195 μL of fresh medium was added to each well, and 5 μL of diluted medium containing the corresponding concentration of the test compound was added respectively (the final concentration of DMSO is 1‰), and the culture plate was then placed in a 5% CO2 incubator at 37° C. for 3 days. After removing the original solution, 90 μL of fresh serum-free 1640 medium was added, then 10 μL of CCK-8 reagent was added to each well and continued incubation for 2 hours. The 96-well plates were placed in a multi-function reader to read the absorbance at the wavelength of 450/650 nm. Cell viability (%)=(ODcompound−ODbackground)/(ODDMSO−ODbackground)×100. GraphPad Prism 5.0 was used to analyze the data. The inhibitory activity of compounds on cell proliferation was plotted based on cell viability and the logarithm of compound concentration. The IC50 value was fitted by a sigmoidal dose response curve equation Y=100/(1+10^(Log C−Log IC50)), wherein C was the concentration of compound.
Table 3 summarizes the inhibitory effect data (IC50) of compounds on the proliferation of NCI-H1299 cell.

LoVo cell = test: Inhibition of proliferation of LoVo cell, CCK-8 method; conditions: read-out: IC50, inhibitory effect on the proliferation of LoVo cell; CCK-8, 3 days
Experimental: Determination of the Inhibitory Effect of Compounds on the Proliferation of LoVo Cell Using CCK-8 Method
The cells were digested by trypsinase and centrifuged at 800 rpm for 5 minutes, the supernatant was discarded, and the residual was resuspended with fresh medium and counted. The cells were seeded into 96-well cell culture plate with a density of 6000 cells per well and incubated overnight in a 5% C02 incubator at 37° C. The stock solutions of test compounds were serially diluted to 8 concentrations by DMSO at the ratios of 1:3 and 1:10, respectively. The final concentration of compound was: 10 μM, 3.3 μM, 1 μM, 0.33 μM, 0.1 μM, 0.033 μM, 0.01 μM and 0 μM. 5 μL diluent of each concentration was added to 120 μL of medium (25 times diluted) and mixed by shaking. The overnight cell plates were taken and the culture medium was removed, 195 μL of fresh medium was added to each well, and 5 μL of diluted medium containing the corresponding concentration of the test compound was added respectively (the final concentration of DMSO is 1‰), and the culture plate was then placed in a 5% CO2 incubator at 37° C. for 3 days. After removing the original solution, 90 μL of fresh serum-free 1640 medium was added, then 10 μL of CCK-8 reagent was added to each well and continued incubation for 2 hours. The 96-well plates were placed in a multi-function reader to read the absorbance at the wavelength of 450/650 nm. Cell viability (%)=(ODcompound−ODbackground)/(ODDMSO−ODbackground)×100. GraphPad Prism 5.0 was used to analyze the data. The inhibitory activity of compounds on cell proliferation was plotted based on cell viability and the logarithm of compound concentration. The IC50 value was fitted by a sigmoidal dose response curve equation Y=100/(1+10^(Log C−Log IC50)), wherein C was the concentration of compound.
Table 2 summarizes the inhibitory effect data (IC50) of compounds on the proliferation of LoVo cell

Structure (SMILES) | IC50 (Wee1 (h)) | IC50 (NCI-H1299 cell) | IC50 (LoVo cell)
C[C@@H]1CN(c2ccc(Nc3ncc4c(n3)N3CCN=C3N(c3c(Cl)cccc3Cl)C4=O)cc2F)C[C@H](C)N1C | 48 nM | 398 nM | 557 nM
C[C@@H]1CN(c2ccc(Nc3ncc4c(n3)N3CCN=C3N(c3c(Cl)cccc3Cl)C4=O)cc2)C[C@H](C)N1C | 30 nM | 315 nM | 421 nM
Cc1cc(Nc2ncc3c(n2)N2CCN=C2N(c2c(Cl)cccc2Cl)C3=O)ccc1N1C[C@@H](C)N(C)[C@@H](C)C1 | 23 nM | 122 nM | 166 nM
